Reference: PubChem BioAssay AID602449 (Sanford-Burnham Center for Chemical Genomics, 2012)
Only a part is listed here, and it is no random draw. Active and inactive are the calls of the source.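 The calls were made as follows: active = inhibition of 50% or more, scaled per plate between neutral and stimulator controls; inactive = the rest.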

assay: blockers of Ca2+-induced mitochondrial swelling – biochemical, isolated mouse mitochondria, absorbance, primary screen (AID 602449); conditions: 30 min, at 10 µM, hits give high values;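 also: 0% = DMSO wells given calcium and 100% = 1 mM EGTA wells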

SMILES | inhibition
C(Cc1nn[nH]n1)Cc1nn[nH]n1 | inactive: -0.7%
O=P(Nc1ccccn1)(c1ccc(Br)cc1)c1ccc(Br)cc1 | inactive: -0.8%
CN(C)C1(CNC(=O)c2ccc(Cl)c(S(N)(=O)=O)c2)CCCCC1 | inactive: -0.3%
Nc1ccc(CCCCOc2ccccc2)cc1 | inactive: -0.5%
COc1ccc(N)c([N+](=O)[O-])c1[N+](=O)[O-] | inactive: 0.6%
CC(C)NC[C@H](O)COc1ccc(CC(N)=O)cc1 | inactive: -1.6%
O=P(Nc1nc2ccccc2s1)(c1ccccc1)c1ccccc1 | inactive: 1.8%
C[C@H]1OP(=O)(Oc2ccccc2)[C@H](O)[C@H](O)[C@H]1N=[N+]=[N-] (stereo partly drawn) | inactive: -0.2%
CC(C)C(=O)NC(Sc1ccccc1)C(Cl)(Cl)Cl (stereo not drawn) | inactive: 9.4%
O=P(Nc1nccs1)(c1ccccc1)c1ccccc1 | inactive: 0.2%
c1nnnn1CCn1cnnn1 | inactive: -0.2%
Cc1ccccc1CN(C)C(=O)COC(=O)C(O)(c1ccccc1)c1ccccc1 | inactive: -0.4%
C[C@@H]1C=CCP(=O)(Oc2ccccc2)O1 (stereo partly drawn) | inactive: -1.6%
C[C@H]1OP(=O)(Oc2ccccc2)C[C@@H]2O[C@@H]21 (stereo partly drawn) | inactive: -0.9%
N#C/C(=C\c1ccc(N(CCBr)CCBr)cc1)C(N)=O | inactive: -0.7%
CC(=O)c1ccc(N2CC2c2ccncc2)cc1 (stereo not drawn) | inactive: -0.2%
COC(=O)C1(C)COP(=O)(NCc2ccccc2)OC1 (stereo not drawn) | inactive: 1.6%
CC(=O)Nc1ccc([As](=O)(O)O)c(O)c1 | inactive: 1%
CC(=O)Nc1ccc(Oc2c([N+](=O)[O-])cc([N+](=O)[O-])cc2[N+](=O)[O-])cc1 | inactive: 8.6%
O=P1(Nc2nc3ccc(Cl)cc3s2)COc2ccccc2O1 (stereo not drawn) | inactive: 0.5%
CCOc1ccc(C2=NCC(CBr)S2)cc1 (stereo not drawn) | inactive: 0.5%

SMILES | inhibition
CC(C)(C)C(=O)NC(Sc1ccccc1)C(Cl)(Cl)Cl (stereo not drawn) | inactive: -0.1%
CCc1cc(O)c([N+](=O)[O-])c(C)c1[N+](=O)[O-] | inactive: 3.5%
O=C(OC1CN2CCC1CC2)c1ccccc1 (stereo not drawn) | inactive: -1.6%
CCC(=O)N1C2C3N(C(=O)CC)C1C1N(C(=O)CC)C(C(N1C(=O)CC)N3C(=O)CC)N2C(=O)CC | inactive: -3.1%
COC(=O)c1cc2c(s1)N=C(c1ccccc1)N(C)P2(=O)N1CCOCC1 (stereo not drawn) | inactive: -1.9%
CC(=O)NC(SC(=S)N(CC(C)C)CC(C)C)C(Cl)(Cl)Cl (stereo not drawn) | inactive: 3%
Cc1ccc(OP(=O)(Nc2ccccn2)Oc2ccc(C)cc2)cc1 | inactive: 1.4%
Cc1ccccc1OP(=O)(Nc1ccccn1)Oc1ccccc1C | inactive: 3.5%
CC(NC(=O)COC(=O)C(O)(c1ccccc1)c1ccccc1)c1ccccc1 (stereo not drawn) | inactive: -0.4%
CN(C)C(=O)Oc1noc2ccccc12 | inactive: 2.6%
O=c1c2cc([N+](=O)[O-])ccc2[nH]c2c([N+](=O)[O-])cc([N+](=O)[O-])cc12 | active: 104%
c1ccc(-c2nn[nH]n2)c(-c2nn[nH]n2)c1 | inactive: -1.4%
Cc1ccc(NP(=O)(Oc2cccc(C)c2)Oc2cccc(C)c2)nc1 | inactive: 2.7%
CCNC(=S)/N=C(\N)N[N+](=O)[O-] | inactive: -0.9%
O=C(NC1CCS(=O)(=O)C1)NP(=S)(Oc1ccccc1)Oc1ccccc1 (stereo not drawn) | inactive: -0.2%
O=P1(N(CCCl)CCCl)OCCC2CCCCN21 (stereo not drawn) | inactive: -2.1%
Nc1cccc2ccc([As](=O)(O)O)cc12 | inactive: -1.5%
CCN(N=Nc1nonc1N)c1nonc1N | inactive: -12.8%
CN(C)P(=O)(N(C)C)n1c(Nc2ccccc2)nnc1-c1ccccc1 | inactive: -0.4%
O=P(Nc1nc2ccc(Cl)cc2s1)(c1ccccc1)c1ccccc1 | inactive: 26%
O=C(O)c1ccccc1[As](=O)(O)O | inactive: 0.4%

SMILES | inhibition
CC(=O)Nc1ccc([As](=O)(O)O)cc1 | inactive: -0.9%
CC(C)NCC(O)COc1ccc(CC(N)=O)cc1 (stereo not drawn) | inactive: 0.6%
CCCC1OP(N)(=O)OCC1CC (stereo not drawn) | inactive: -2.6%
CCOP(=O)(Nc1ccccc1)OCC | inactive: -6.3%
Cc1cc(SC(NC(=O)c2ccc(F)cc2)C(Cl)(Cl)Cl)ncn1 (stereo not drawn) | inactive: 0.4%
Cc1ccc(NP(=O)(Oc2ccccc2F)Oc2ccccc2F)nc1 | inactive: 2%
CN(C(=O)Cc1ccc(Cl)c(Cl)c1)[C@H]1CCCC[C@@H]1N1CCCC1 | inactive: 2.7%
Oc1ccccc1CNc1ccccn1 | inactive: -1.1%
O=C(NC(Sc1ccncn1)C(Cl)(Cl)Cl)c1ccccc1 (stereo not drawn) | inactive: 1.8%
CC(C)CC(=O)NC(Sc1ccc(Cl)cc1)C(Cl)(Cl)Cl (stereo not drawn) | inactive: 3.8%
Nc1cc(N)c2nonc2c1[N+](=O)[O-] | inactive: 1.8%
O=[N+]([O-])C1C(O)C(O)C([N+](=O)[O-])C(O)C1O (stereo not drawn) | inactive: 0.1%
CN(C(=O)Cc1ccc(Cl)c(Cl)c1)[C@H]1CCCC[C@H]1N1CCCC1 | inactive: -2%
Cc1ccc(N/C(=N/P(=O)(N2CCOCC2)N2CCOCC2)N2CCOCC2)cc1 | inactive: 2.3%
NC(=O)c1cc([N+](=O)[O-])cc([N+](=O)[O-])c1N | inactive: 0.1%
Clc1ccc(Cl)c(NC2=NCC(CBr)S2)c1 (stereo not drawn) | inactive: -1.1%
CN1CCCC(OC(=O)C(c2ccccc2)c2ccccc2)C1 (stereo not drawn) | inactive: 38.7%
COc1ccccc1OP(=O)(Nc1ccc(C)cn1)Oc1ccccc1OC | inactive: -1.3%
Cc1ccc(OP(=O)(Nc2nccs2)Oc2ccc(C)cc2)cc1 | inactive: 3.1%
CCN(/C(=N/P(=O)(N1CCOCC1)N1CCOCC1)N1CCOCC1)c1ccc(OC)cc1 | inactive: -0.3%
Nc1ccc([As](=O)(O)c2ccc(N)cc2)cc1 | inactive: 0.6%

SMILES | inhibition
C[N+]1=C2C=CC=CC=C2SC12C([N+](=O)[O-])=CC([N+](=O)[O-])=C[C-]2[N+](=O)[O-] (stereo not drawn) | inactive: 12.6%
c1cc(-c2nn[nH]n2)ccc1-c1nn[nH]n1 | inactive: -1.5%
CC1CCN(C(=O)Oc2c(Cl)cc(Cl)c3cccnc23)CC1 | inactive: -1.6%
CC(C)=N/N=C(\N)N[N+](=O)[O-] | inactive: -0.7%
CC(C)c1nc(Nc2ccccc2)n(P(=O)(N(C)C)N(C)C)n1 | inactive: 0.4%
CN(C)C(=O)OCCc1n(C)cc[n+]1C | inactive: 2%
COc1ccc(C2=NCC(CBr)S2)cc1 (stereo not drawn) | inactive: -2.5%
Cc1ccc(NP(=O)(Oc2ccccc2)Oc2ccccc2)nc1 | inactive: 0.2%
CCc1nc2c(n1)c1c(non1O)c1c2no[n+]1[O-] | inactive: 9.6%
O=[N+]([O-])c1cc([N+](=O)[O-])c(CCNc2ccccc2)c([N+](=O)[O-])c1 | inactive: 15.9%
O=[N+]([O-])c1cccc2n[nH]nc12 | inactive: 0.6%
CC(=O)N1C2C3N(C(C)=O)C1C1N(C(C)=O)C(C(N1C(C)=O)N3C(C)=O)N2C(C)=O | inactive: 0.3%
CN1C(C(=O)Nc2ccccn2)=C(O)c2ccccc2S1(=O)=O | inactive: 0.7%
O=[N+]([O-])c1ncn(CCn2ncnc2[N+](=O)[O-])n1 | inactive: -1%
CC(C)(C)C(=O)NC(Sc1ccncn1)C(Cl)(Cl)Cl (stereo not drawn) | inactive: 1.1%
O=C(O)CNc1ccc([As](=O)(O)O)cc1 | inactive: 0.4%
O=[N+]([O-])c1cccc(NC2=NCC(CBr)S2)c1 (stereo not drawn) | inactive: -0.5%
COC(=O)C1(C)COP(=O)(Nc2ccccc2)OC1 (stereo not drawn) | inactive: -1%
O=P1(N(CCCl)CCCl)OCCCS1 (stereo not drawn) | inactive: 0.5%
O=C(Nc1cc([As](=O)(O)O)ccc1O)c1ccccc1 | inactive: -0.2%
